Source: PubChem BioAssay AID540299 (ICCB-Longwood Screening Facility, Harvard Medical School, 2011)
This is a selection; strong and weak results do not stand in their true shares. Active and inactive are the calls of the source. No stated cut-off is given here; in the data, active means inhibition above about 21% (passing the limit was not always enough); inactive means the rest.

Amino acid sequences for entries named in this document (tags omitted).
UniProt P9WNP5, whole entry: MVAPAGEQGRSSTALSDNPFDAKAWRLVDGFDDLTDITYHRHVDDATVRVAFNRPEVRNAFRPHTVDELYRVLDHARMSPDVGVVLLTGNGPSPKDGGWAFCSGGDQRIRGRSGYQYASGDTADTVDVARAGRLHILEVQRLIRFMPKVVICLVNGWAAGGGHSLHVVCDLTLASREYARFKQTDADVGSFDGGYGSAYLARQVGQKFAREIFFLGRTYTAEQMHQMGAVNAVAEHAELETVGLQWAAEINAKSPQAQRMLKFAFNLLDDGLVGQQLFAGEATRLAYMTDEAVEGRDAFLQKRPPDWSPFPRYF

These compounds were tested against 1,4-dihydroxy-2-naphthoyl-CoA synthase (Mycobacterium tuberculosis (strain ATCC 25618 / H37Rv)) (UniProt P9WNP5) (assay: M. tuberculosis MenB inhibitors, primary screen, biochemical, absorbance (AID 540299)). Conditions: MenB enzyme assay, absorbance read-out; stronger effect = higher value; concentration not given here.

Question: How did the inhibition turn out when `CN(CCCl)CCCl` was run?
Answer: inactive: 4.46%
